FN deposit inh – fibronectin deposition inhibition | AH1F fibroblasts, Alexa488-fibronectin deposition fluorescence, overnight | inhibition, % at 12.6 µM | 350,000 compounds, 0.086% hits;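 active means mean inhibition across replicates of 30% or more, regardless of how many single replicates reach that level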;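 further: positive control wells lacked labelled fibronectin entirely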
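Measured by – fluorescence 485/525 nm · System – AH1F fibroblast monolayer, labelled fibronectin deposition · Amount – 10000 cells per well · Buffer or medium – serum-reduced DMEM (2% serum) · Doses – single dose, pinned · Also added – fluorescent fibronectin at 24 nM final · Schedule – 1 h cell attachment, overnight exposure to compound and label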
miR-122 sensor – blocks miR-122 activity in Huh7 sensor cells; Huh7 miR-122 Renilla luciferase sensor, 48 h; neutral wells = 0, positive control = 100; 340,000 compounds, 0.3% hits; activation (reporter increase), % at 12.5 µM; AID 602342;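 active means mean replicate activation score at least 90 and every replicate individually at or above 90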;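 further: higher luciferase means less miR-122 activity so hits act as miR-122 inhibitors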
Yeast UUG start – yeast start codon fidelity modulation; actives 0.13% (n = 350,000); activity score, % at 18.7 µM; S. cerevisiae UUG-firefly luciferase reporter, luminescence/redox ratio;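 active = replicate mean at a twofold rise or more, about +100% in these data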;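 note: firefly luciferase made from a UUG start codon reports start codon fidelity; reporter light over untreated wells divided by growth signal over untreated wells; some hits fall short of that in this replicate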
Cneo AK release – causes C. neoformans cell lysis; AID 651654; 360,000 compounds, 0.2% hits; adenylate kinase release luminescence, 4 h; normalised: neutral wells 0, clomiphene wells 100; lysis activity, % at 15 µM;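 active means mean lysis activity across replicates of at least 80%, whatever share of replicates individually reach that level; inactive means mean lysis activity below 80%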
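Material – log-phase Cryptococcus neoformans yeast cells · Input – 5 × 10^6 yeast cells/mL · Medium – fresh YPD growth medium · Doses – single compound concentration per well · Timing – static 4 h at 37 °C with compound, 1 h detection · Detection – adenylate kinase release luminescence · Read-out – signal increase indicating cell lysis · Control set – Clomiphene as positive lysis control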
HIV Env fusion – HIV envelope-mediated fusion inhibition; inhibition, % at 12.3 µM; HeLa-JRFL Env/CEM21 cell fusion, luciferase; 360,000 compounds, 1.1% hits;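 active means mean replicate inhibition score of at least 50 and every replicate individually at or above 50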;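 further: 0% = plate neutral controls and 100% = maraviroc near 300 nM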
PGC1a acetyl inh – PGC1a acetylation modulation, inhibitor mode | U2OS PGC1a acetylation, AlphaScreen anti-acetyl-lysine; with virally co-expressed GCN5 acetyltransferase | inhibition, % at 15.6 µM | 350,000 compounds, 0.17% hits | AID 651687;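 active means every replicate shows inhibition of at least 40%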;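 further: 0% = neutral control wells and 100% = positive control wells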
Numbers without * were called inactive; [ ] = remark or other dose. Most compounds without a hit are left out; they make up all but 1.5% or so of the library.

`C[C@@H]1CN([C@H](C)CO)C(=O)c2cc(NS(=O)(=O)c3ccc(Cl)cc3)ccc2O[C@@H](C)CCCCO[C@H]1CN(C)S(=O)(=O)c1cccs1` gave FN deposit inh -13.9, miR-122 sensor -7.2[16.7 µM], Yeast UUG start 7.4, Cneo AK release -1.2, HIV Env fusion 62.6*[16.7 µM] and PGC1a acetyl inh 1.6.
Screening C[C@@H]1CN([C@H](C)CO)C(=O)c2cc(NS(=O)(=O)c3ccc(Cl)cc3)ccc2O[C@@H](C)CCCCO[C@@H]1CN(C)S(=O)(=O)c1cccs1 returned FN deposit inh -12.1, miR-122 sensor 6.6[16.7 µM], Yeast UUG start 3.6, Cneo AK release 0.8, HIV Env fusion -8.4[16.7 µM] and PGC1a acetyl inh -3.7.
`CC(C)NC(=O)Nc1ccc2c(c1)C(=O)N([C@H](C)CO)C[C@@H](C)[C@H](CN(C)S(=O)(=O)c1ccc(Cl)cc1)OCCCC[C@@H](C)O2` gave FN deposit inh -2.5, miR-122 sensor -6.1[16.7 µM], Yeast UUG start -1.2, Cneo AK release 0.4, HIV Env fusion -0.7[16.7 µM] and PGC1a acetyl inh 18.4.
`CC(C)NC(=O)Nc1ccc2c(c1)C(=O)N([C@@H](C)CO)C[C@@H](C)[C@@H](CN(C)S(=O)(=O)c1ccc(Cl)cc1)OCCCC[C@@H](C)O2` gave FN deposit inh -11.0, miR-122 sensor 1.0[16.7 µM], Yeast UUG start 6.5, Cneo AK release 102.1*, HIV Env fusion -38.1[16.7 µM] and PGC1a acetyl inh -5.8.
`CNC[C@@H]1OCCCC[C@@H](C)Oc2ccc(NS(=O)(=O)c3ccc(Cl)cc3)cc2C(=O)N([C@H](C)CO)C[C@H]1C` gave miR-122 sensor 31.8[16.7 µM], Yeast UUG start 19.6, Cneo AK release 100.1*, HIV Env fusion -4.8[16.7 µM] and PGC1a acetyl inh -12.9.
Screening Cc1ccc(S(=O)(=O)N(C)C[C@H]2OCCCC[C@H](C)Oc3ccc(NS(=O)(=O)c4ccc(Cl)cc4)cc3C(=O)N([C@H](C)CO)C[C@H]2C)cc1 returned FN deposit inh -1.2, miR-122 sensor 0.9[16.7 µM], Yeast UUG start -1.1, Cneo AK release 0.3, HIV Env fusion 4.2[16.7 µM] and PGC1a acetyl inh -8.0.
Screening Cc1ccc(S(=O)(=O)Nc2ccc3c(c2)C(=O)N([C@@H](C)CO)C[C@H](C)[C@H](CN(C)S(=O)(=O)c2ccc(Cl)cc2)OCCCC[C@@H](C)O3)cc1 returned FN deposit inh 1.3, miR-122 sensor 9.5[16.7 µM], Yeast UUG start -8.7, Cneo AK release 103.1*, HIV Env fusion -1.8[16.7 µM] and PGC1a acetyl inh -3.2.
O=C(c1cccc(F)c1)N1CC2(C1)[C@@H](c1ccccc1)[C@H](CO)N2C(=O)C1CCCC1 was read as FN deposit inh -0.8.
Screening CN(N)c1nc(-c2ccccc2)nnc1C(F)(F)F returned miR-122 sensor 3.1, Yeast UUG start -18.2, Cneo AK release 0.6 and PGC1a acetyl inh 3.1.
For COc1ccc(C(=O)Nc2nc3ccccc3[nH]2)cc1 the results were FN deposit inh 6.9, miR-122 sensor -6.0, Yeast UUG start -80.1, Cneo AK release -4.3, HIV Env fusion -29.3 and PGC1a acetyl inh 17.0.
COc1cc(OC)cc(C(=O)N[C@H](C(=O)NCCc2c[nH]c3ccccc23)C(C)C)c1 was read as FN deposit inh 9.2, miR-122 sensor 7.4, Yeast UUG start -11.1, Cneo AK release 4.3, HIV Env fusion 77.8* and PGC1a acetyl inh -16.9.
`COc1cc(SC)ccc1C(=O)Nc1nc2ccccc2[nH]1` gave FN deposit inh -5.3, miR-122 sensor -4.3, Yeast UUG start -93.5, Cneo AK release -2.6 and HIV Env fusion 92.5*.
`COc1ccc(C(=O)N[C@H](C(=O)Nc2nc3ccccc3[nH]2)C(C)C)cc1` gave FN deposit inh -1.9, miR-122 sensor 116.9*, Yeast UUG start -31.9, Cneo AK release -14.2, HIV Env fusion inactive and PGC1a acetyl inh -23.2.
For COc1ccccc1C(=O)Nc1nc2ccccc2[nH]1 the results were FN deposit inh 1.1, miR-122 sensor 5.0, Yeast UUG start -95.0, Cneo AK release -4.1 and HIV Env fusion 72.9*.
COCC(=O)N(C)C[C@@H]1Oc2cc(C#C[C@@H](C)O)ccc2S(=O)(=O)N([C@H](C)CO)C[C@@H]1C was read as FN deposit inh 9.2, miR-122 sensor -1.8[16.7 µM], Yeast UUG start -2.8, Cneo AK release 10.4, HIV Env fusion 1.0[16.7 µM] and PGC1a acetyl inh 3.3.
`CC(OC(=O)CN1C(=O)NC2(CCCC2)C1=O)c1ccc(F)cc1` (stereo not given) gave FN deposit inh 1.8, Yeast UUG start -10.8, Cneo AK release -0.4 and HIV Env fusion -2.7.
For O=C(Nc1ccc(Cl)cc1)Nc1nnc(CSc2ccc(Cl)cc2)s1 the results were FN deposit inh 4.2 and HIV Env fusion 50.2.
Screening CCN(CCC#N)c1ccc(N2C(=O)CCCC2=O)cc1[N+](=O)[O-] returned FN deposit inh -15.4, miR-122 sensor -9.6, Yeast UUG start -11.2, Cneo AK release 0.0, HIV Env fusion 17.5 and PGC1a acetyl inh 0.6.
For CCN(CC)c1ccc(C2=NNC(=O)CC2C)cc1[N+](=O)[O-] (stereo not given) the results were FN deposit inh -3.9, miR-122 sensor -5.1, Yeast UUG start 4.5, Cneo AK release 1.5, HIV Env fusion 87.5* and PGC1a acetyl inh 8.1.
For CC1CC(=O)NN=C1c1ccc(N(C)C)c([N+](=O)[O-])c1 (stereo not given) the results were FN deposit inh 0.9, miR-122 sensor -7.7, Yeast UUG start -6.8, Cneo AK release 5.4, HIV Env fusion 73.0* and PGC1a acetyl inh 3.4.
CC1CC(=O)NN=C1c1cccs1 (stereo not given) was read as FN deposit inh 5.1, miR-122 sensor -4.1, Yeast UUG start -15.0, Cneo AK release 3.1, HIV Env fusion -1.2 and PGC1a acetyl inh 7.6.
`CCOC(=O)c1sc(=N)n(-c2ccc(OC)cc2)c1C` gave FN deposit inh 8.9.
For Cc1cccc(/C=N\Nc2cn[nH]c(=O)c2Cl)c1 the results were FN deposit inh 5.0, miR-122 sensor -2.9, Yeast UUG start -10.3, Cneo AK release -0.5, HIV Env fusion 72.7* and PGC1a acetyl inh -4.8.
`O=c1[nH]ncc(N/N=C\c2cccnc2)c1Cl` gave FN deposit inh -2.0 and HIV Env fusion 26.4.
For O=C(CNS(=O)(=O)c1ccc2c(c1)OCCCO2)N1CCN(Cc2ccccc2)CC1 the results were FN deposit inh 5.1, miR-122 sensor -4.8, Yeast UUG start -2.3, Cneo AK release -1.4, HIV Env fusion -3.9 and PGC1a acetyl inh 3.8.
For C[C@H]1CCCCO[C@H](CN(C)C(=O)c2ccncc2)[C@@H](C)CN([C@@H](C)CO)C(=O)c2cc(NC(=O)Cc3ccccc3)ccc2O1 the results were FN deposit inh -3.1, miR-122 sensor 50.2[16.7 µM], Yeast UUG start 25.7, Cneo AK release 112.8*, HIV Env fusion -12.6[16.7 µM] and PGC1a acetyl inh 9.4.
